Where “and” joins values, the source holds several entries; their conditions need not be identical. Equal entries are not always repeated. Entries after “also recorded” stand apart in the source; their conditions may differ.
Experiments:
[1] = test system: CFA-(Complete Freunds Adjuvant) induced hypersensitivity; assay: CFA-induced hypersensitivity using weight-bearing in the C57BI6 mouse; details: in vivo
Protocol: On 3 days before CFA dose: habituation to WB apparatus, baseline readings are taken once. 24 h before dosing: intraplantar injection of 20 μl of CFA 1.5 mg/ml to the left hind paw. 1 h before dosing: post-CFA readings are taken for WB. […] Naive animals distribute their body weight equally between the two hind paws. However, when a painful insult is given to one hindpaw (i.e., sciatic nerve constriction or CFA intraplantar injection), the weight is re-distributed so that less weight is put on the affected paw (with a decrease in weight bearing on the injured paw). Animals were placed in the incapacitance tester (Linton Instruments, UK) with the hind paws on separate sensors. The average forces exerted by the left and the right hindlimb were recorded over 2 s. Weight-bearing readings were taken for both left and right hind paws. The ratio ipsilateral/contralateral was calculated and expressed in % (mean±s.e.m.). Statistics: Two-Way RM Mixed model (treatment×repeated factor: time) (InVivoStat v3.7.0.0)

[2] = test system: Nerve Growth Factor (NGF) stimulated phospho-ERK1/2 activation in PC-12 cells; assay: Inhibition of NGF stimulated pERK1/2 activation in the PC-12 cell line (HTRF), alone and combined with anti-NGF; assay type: cell-based, rat

Compound: COc1cc2nc(C)nc(N[C@H](C)c3cc(N)cc(C(F)(F)F)c3)c2cc1O[C@H]1CCOC1 [BI3406, N-[(1R)-1-[3-amino-5-(trifluoromethyl)phenyl]ethyl]-7-methoxy-2-methyl-6-[(3S)-oxolan-3-yl]oxyquinazolin-4-amine]
- efficacy in a pain model, in words ([1]; 10 mg/kg): efficacy
- efficacy / analgesic effect in a pain model, in words ([1]; 25 mg/kg): little to no efficacy; also recorded: no limited analgesic effect on its own
- weight-bearing, ratio ipsilateral/contralateral (mean) ([1]; 25 mg/kg): 65.06% and 68.18% and 69.64% and 67.26%
- weight-bearing, ratio ipsilateral/contralateral (mean) ([1]; 50 mg/kg): 74.11% and 71.76% and 77.59% and 78.09%
- weight-bearing, ratio ipsilateral/contralateral (mean) ([1]; 100 mg/kg): 84.56% and 66.96% and 81.75% and 91.15%
- efficacy [2]: 40%
- efficacy in the in vitro model of pain (NGF stimulated PC12 assay), in words [2]: efficacy comparable with the pain drug candidate Tanezumab
- IC50 ([2]; Rattus norvegicus, PC-12): 10 to 20 nM

From US20240156817A1, “TREATMENTS FOR PAIN” (Sevenless Therapeutics Limited, priority 2021, published 2024)
